In patent US7678386B2, “Liposomes coated with selected antibodies that bind to aminophospholipids” (Board of Regents the University of Texas, priority 2002, dated 2010):

Tested on: HUVEC
Assay: MTT cytotoxicity assay on HUVEC
Format: cell-based
Conditions: compared with untreated control
Experimental: The biotinylated duramycin construct DLB was prepared as described in Example XV. The unmodified duramycin compound and DLB were tested for cytotoxic effects on HUVEC using an MTT assay.

duramycin
cytotoxic effects (MTT): dose-dependent toxicity
